The target of test [1] is KDR (VEGFR-2, Flk-1), full-length receptor on cells (human) (UniProt P35968). Briefly: saturation binding of peptide/neutravidin-HRP complex to KDR-transfected 293H cells; P12-F-XB, one experiment.
The target in test [2] is KDR (VEGFR-2, Flk-1), full-length receptor on cells (human), P35968. Briefly: saturation binding of peptide/neutravidin-HRP complex, KDR- minus mock-transfected 293H cells. Particulars: remark: other sources report otherwise.

The chains behind the UniProt entries cited, without tags or fusion partners. Residues count along the entry.
UniProt P35968, 20-1356: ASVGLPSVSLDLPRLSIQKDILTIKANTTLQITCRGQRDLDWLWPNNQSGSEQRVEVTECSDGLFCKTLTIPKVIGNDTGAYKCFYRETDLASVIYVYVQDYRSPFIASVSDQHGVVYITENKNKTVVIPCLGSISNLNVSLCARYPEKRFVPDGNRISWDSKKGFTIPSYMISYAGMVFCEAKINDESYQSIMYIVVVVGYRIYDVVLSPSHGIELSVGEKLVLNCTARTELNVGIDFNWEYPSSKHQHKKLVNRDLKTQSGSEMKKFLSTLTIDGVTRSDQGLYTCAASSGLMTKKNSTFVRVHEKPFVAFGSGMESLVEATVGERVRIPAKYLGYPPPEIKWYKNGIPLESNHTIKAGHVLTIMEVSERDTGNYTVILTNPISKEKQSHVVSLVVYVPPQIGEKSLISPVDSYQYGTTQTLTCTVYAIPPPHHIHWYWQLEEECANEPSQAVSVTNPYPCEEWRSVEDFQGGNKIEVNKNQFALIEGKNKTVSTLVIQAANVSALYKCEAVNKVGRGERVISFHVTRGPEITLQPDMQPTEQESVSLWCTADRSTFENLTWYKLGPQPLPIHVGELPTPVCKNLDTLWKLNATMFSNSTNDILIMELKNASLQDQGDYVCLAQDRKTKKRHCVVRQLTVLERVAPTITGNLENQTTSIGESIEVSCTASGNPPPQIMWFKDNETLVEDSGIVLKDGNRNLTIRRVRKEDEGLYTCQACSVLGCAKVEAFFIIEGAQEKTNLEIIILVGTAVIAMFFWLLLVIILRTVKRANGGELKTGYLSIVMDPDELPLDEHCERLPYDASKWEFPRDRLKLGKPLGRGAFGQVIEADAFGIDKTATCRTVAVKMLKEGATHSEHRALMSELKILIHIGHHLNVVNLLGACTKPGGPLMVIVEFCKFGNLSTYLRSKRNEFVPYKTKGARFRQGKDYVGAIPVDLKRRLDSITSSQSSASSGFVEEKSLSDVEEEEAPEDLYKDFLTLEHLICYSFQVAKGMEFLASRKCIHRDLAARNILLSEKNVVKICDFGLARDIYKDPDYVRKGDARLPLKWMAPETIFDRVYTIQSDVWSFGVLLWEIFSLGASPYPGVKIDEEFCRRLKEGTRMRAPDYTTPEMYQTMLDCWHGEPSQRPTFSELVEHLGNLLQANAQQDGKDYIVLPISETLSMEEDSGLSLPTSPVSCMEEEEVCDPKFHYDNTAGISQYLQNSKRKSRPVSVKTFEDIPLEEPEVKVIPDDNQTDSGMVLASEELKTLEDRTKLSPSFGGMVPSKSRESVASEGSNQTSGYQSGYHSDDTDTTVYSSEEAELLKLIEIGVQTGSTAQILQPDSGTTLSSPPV

As a reminder, the Kd is the constant that tells how readily two partners part at equilibrium. Read a low Kd as tighter binding.

B1: P12-F-XB on neutravidin-HRP (peptide)
peptide: AGPTWCEDDWYYCWLFGTK
modifications: Ac-; Cys6-Cys13 disulfide assumed by paragraph 574; J between Thr18 and the C-terminal Lys; Lys(Biotin-JJ); -NH2
Turning to B1, in test [1], the Kd came to 3.02 nM.

B2: P5-XB (4X) on neutravidin-HRP (peptide)
peptide: AGPKWCEEDWYYCMITGTGGGK
modifications: here or on the partner: Ac-; C6-C13 disulfide; K22(Biotin-JJ); -NH2
In test [2], B2 yielded a Kd of 14.9 nM.

(Values after US20050147555A1.)
